Source: PubChem BioAssay
RAD52 inh: RAD52 (human) annealing inhibition. recombinant RAD52 DNA annealing, FRET fluorescence. inhibition, % at 18.7 µM. 360,000 compounds, 0.46% hits;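 active means every replicate showing at least 50% inhibition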
UUG fidelity: alters start codon recognition fidelity in yeast | S. cerevisiae UUG-firefly luciferase reporter, luminescence/redox ratio | activity score, % at 18.7 µM | hit rate 0.13% among 350,000 | AID 602363;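 active means replicate mean at a twofold rise or more, about +100% in these data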;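 further: firefly luciferase made from a UUG start codon reports start codon fidelity; reporter light over untreated wells divided by growth signal over untreated wells; some hits fall short of that in this replicate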
PglD DTNB: blocks C. jejuni PglD acetyltransferase activity. purified PglD enzyme, DTNB colorimetric CoA detection. inhibition, % at 12.5 µM. 360,000 compounds, 0.098% hits. AID 602405; in the data active means inhibition above about 16%, passing the limit was not always enough
Casp6 inh: blocks human caspase-6 cleavage activity | P55212 | purified caspase-6, Z-VEID-R110 cleavage fluorescence | inhibition, % at 12.5 µM | 350,000 compounds, 0.53% hits;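 active means mean inhibition across replicates at least about 35%, with every replicate also reaching that limit, limit read from the data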;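 further: 0% = median of neutral control wells and 100% = no fluorescence left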
GSIS activator: GLuc luminescence reporter in INS-1E cells, primary screen for activators of glucose-dependent secretion of insulin; 370,000 compounds, 0.61% hits; activation, % at 16.6 µM; INS-1E GLuc reporter insulin secretion, 2-3 h;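 active means lowest replicate activation of at least 40%, so every replicate reaches that level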;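 further: 0% = median of neutral control wells and 100% = median of IBMX positive control wells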
RAD54 branch: RAD54 (human) branch migration inhibition | Q92698 | RAD54 Holliday junction branch migration, FAM/BHQ fluorescence | inhibition, % at 10.4 µM | 360,000 compounds, 0.14% hits | AID 602329;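 active means mean normalized replicate activity at least 40 and at least half of replicates scoring 40 or more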;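 further: 0% = median of neutral control wells and 100% = median of positive control wells; inhibitors cause a drop in the FAM fluorescence signal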
* marks the source's active call; other numbers are inactive results; x = no result given. Only some compounds are listed: those with a hit (about 1.5% of all), similar ones and a draw of the others.

A first look, 5 compounds:
SMILES | RAD52 inh | UUG fidelity | PglD DTNB | Casp6 inh | GSIS activator | RAD54 branch
CCC(=O)N(C)/C=C1\Sc2ccccc2C1=O | x | x | x | x | 22.4 | x
CCC(=O)N(CC)C1=C(O)c2ccccc2C(=O)C1=O | -9.3 | x | x | 40.0* | -10.1 | x
Cn1c(=O)oc2cc(S(=O)(=O)N3CCN(c4ccc(F)cc4)CC3)ccc21 | x | -13.3 | -2.5 | x | x | -9.0
O=C1CCc2cc(S(=O)(=O)N3CCN(c4ccc(F)cc4)CC3)cc3c2N1CC3 | -6.3 | x | x | 0.5 | 47.3* | x
Cn1c(=O)c(=O)n(C)c2cc(S(=O)(=O)N3CCN(c4ccc(F)cc4)CC3)ccc21 | x | -33.5 | -4.5 | x | 50.9* | -0.5

Main list, repeating the preview:
SMILES | RAD52 inh | UUG fidelity | PglD DTNB | Casp6 inh | GSIS activator | RAD54 branch
CCC(=O)N(C)/C=C1\Sc2ccccc2C1=O | x | x | x | x | 22.4 | x
CCC(=O)N(CC)C1=C(O)c2ccccc2C(=O)C1=O | -9.3 | x | x | 40.0* | -10.1 | x
Cn1c(=O)oc2cc(S(=O)(=O)N3CCN(c4ccc(F)cc4)CC3)ccc21 | x | -13.3 | -2.5 | x | x | -9.0
O=C1CCc2cc(S(=O)(=O)N3CCN(c4ccc(F)cc4)CC3)cc3c2N1CC3 | -6.3 | x | x | 0.5 | 47.3* | x
Cn1c(=O)c(=O)n(C)c2cc(S(=O)(=O)N3CCN(c4ccc(F)cc4)CC3)ccc21 | x | -33.5 | -4.5 | x | 50.9* | -0.5
COc1ccc(S(=O)(=O)NNC(=O)c2cccs2)cc1 | -4.0 | -24.1 | -2.1 | -4.5 | -11.3 | 0.5
CCNc1nc(NOC)nc(OCC#N)n1 | -9.7 | x | x | -0.2 | 46.7* | x
CCOc1ccc(NC(=S)NC(=O)c2c(Cl)c(C)nn2C)c([N+](=O)[O-])c1 | -9.0 | -20.1 | -15.7 | 1.4 | 1.9 | -11.8
CC(=O)c1ccc(S(=O)(=O)N2CCN(C(=O)c3ccc(-n4cncn4)c([N+](=O)[O-])c3)CC2)cc1 | -1.6 | -11.3 | -0.4 | 53.9* | -2.2 | 9.6
O=C(c1ccc(-n2cncn2)c([N+](=O)[O-])c1)N1CCN(S(=O)(=O)c2ccc(Br)cc2)CC1 | -6.0 | -1.2 | 3.8 | 5.1 | -0.2 | 0.1
COc1ccc(-n2nc3c(N4CCC(C(=O)NC5CCCCC5)CC4)nnc(C)c3c2C)cc1 | x | 2.3 | 3.1 | x | x | 9.3
CCn1nc(C)c(NC(=O)c2cnn3c(C(F)F)cc(-c4ccccc4)nc23)c1C | -3.3 | x | x | 1.6 | 54.9* | x
N#C/C(=C\c1c(N2CCCCCC2)nc2ccccn2c1=O)C(N)=O | -11.7 | -4.0 | -6.2 | 1.9 | 40.4* | -1.1
O=C(NN=C1CCCC1)c1cc(-c2ccccc2)n[nH]1 | x | x | x | x | 48.1* | x
CCCc1nc(SCC(=O)c2ccccc2)c2c(=O)n(C)c(=O)n(C)c2n1 | -9.8 | 9.9 | -0.8 | -0.2 | 8.1 | 3.8
CCc1nc(SCC(=O)c2ccccc2)c2c(=O)n(C)c(=O)n(C)c2n1 | -11.5 | x | x | -3.0 | 40.7* | x
CC1=CSC2=NC(=O)/C(=C\c3cccn3-c3ccc([N+](=O)[O-])cc3)C(=N)N12 | x | -8.2 | 5.5 | x | 236.6* | -0.1
CCN(CC(=O)NCc1cccs1)C(=O)CCOc1ccccc1 | -18.1 | -15.1 | -3.6 | -2.0 | -10.2 | -15.7
CCOc1ccc(OCCC(=O)N(CC)CC(=O)NCc2cccs2)cc1 | -3.3 | 0.4 | 4.5 | 4.0 | 41.1* | -5.1
CCOC(=O)C1CCN(C(=O)CN(c2ccc(OC)cc2)S(=O)(=O)c2c(C)nn(C)c2C)CC1 | -1.1 | -11.7 | -1.3 | 0.6 | x | 4.8
Cc1nccn1-c1ccc(NC(=O)[C@@H](Cc2ccccc2)NC(=O)[C@H]2O[C@@H](n3ccc(=O)[nH]c3=O)[C@H](O)[C@@H]2O)cc1 | 9.1 | x | x | -2.3 | 8.6 | x
O=C(N[C@H](Cc1ccccc1)C(=O)N1CCN(C(=O)N2CCOCC2)CC1)[C@H]1O[C@@H](n2ccc(=O)[nH]c2=O)[C@H](O)[C@@H]1O | -12.2 | x | x | 50.6* | 12.9 | x
Cc1ccc(NC(=O)[C@@H](Cc2ccccc2)NC(=O)[C@H]2O[C@@H](n3ccc(=O)[nH]c3=O)[C@H](O)[C@@H]2O)cc1C | 4.5 | x | x | 1.5 | 51.4* | x
CN(C)c1ccc(/C=C/c2ccc3c4ccccc4ccc3[n+]2-c2ccccc2)cc1 | 45.2 | 94.9 | 0.8 | 38.5* | -56.7 | 74.1*
CN(C)c1ccc(/C=C/c2cccc[n+]2[O-])cc1 | -215.6 | -21.1 | -2.2 | -0.4 | x | -20.3
COc1ccc(Cl)cc1C(=O)Nc1cccc(-c2ccc3nncn3n2)c1 | -14.6 | x | x | -3.5 | 43.0* | x
CCC(=O)N1CC(=O)N2[C@H](CO)[C@@H](c3ccc(C#CC4CCCC4)cc3)[C@H]2C1 | 0.8 | x | x | 2.4 | 16.9 | x
CCOC(=O)c1c(NC(=O)C2CC2)sc2c1CC(C)(C)OC2 | -5.9 | x | x | -3.4 | 13.5 | x
CCOC(=O)c1c(NC(=O)C2CC(Cl)=CCC2C(=O)O)sc2c1CC(C)(C)OC2 (configuration not stated) | -7.3 | x | x | 42.6* | -11.8 | x
CS(=O)(=O)c1ncc(Cl)c(C(=O)Nc2ccc(OC(F)F)cc2)n1 | -7.0 | -7.9 | 0.2 | 4.6 | 58.6* | 3.9
Cc1ccccc1NC(=O)c1nc(S(C)(=O)=O)ncc1Cl | -21.1 | -19.9 | -10.2 | -0.5 | -5.6 | -5.1
C#CCOCCOCCOCCNc1nc(N2CCN(C(=O)C([C@@H](C)O)n3cc([C@@H](N)CCCCN)nn3)CC2)nc(N2CCN(C(=O)[C@H](CO)n3cc([C@@H](N)C(C)C)nn3)CC2)n1 (some centres not stated) | 58.2* | 21.2 | -1.3 | -235.1 | 1.8 | 6.6
C#CCOCCOCCOCCNc1nc(N2CCN(C(=O)CCCCCCCCCCNC(=O)[C@H](CCCCN)n3cc(CCO)nn3)CC2)nc(N2CCN(C(=O)CCCCCCCCCCNC(=O)[C@H](CCCCN)n3cc(CCO)nn3)CC2)n1 | x | -2.8 | -4.5 | x | x | 50.0*
CCCC(=O)Nc1sc(C)c(C)c1C#N | -21.9 | x | x | -0.3 | 19.3 | x
Cc1ccc(S(=O)(=O)N2C[C@@H](O)COC[C@H]3O[C@@H](CC(=O)NCC4CCCCC4)CC[C@@H]32)cc1 | 52.7* | 17.4 | 6.2 | 0.1 | -9.6 | -10.8
O=C(C[C@H]1CC[C@H]2[C@@H](COC[C@H](O)CN2S(=O)(=O)c2ccc(F)cc2)O1)NCC1CC1 | -3.3 | x | 1.4 | 1.0 | -2.7 | -21.5
O=C(C[C@@H]1CC[C@H]2[C@@H](COC[C@@H](O)CN2S(=O)(=O)c2ccc(F)cc2)O1)NCC1CCCCC1 | 70.3* | 1.0 | 0.9 | -2.0 | 10.0 | 3.4
O=C(C[C@H]1CC[C@H]2[C@@H](COC[C@@H](O)CN2S(=O)(=O)c2ccc(F)cc2)O1)NCC1CCCCC1 | 20.9 | -3.4 | -1.5 | 0.2 | 2.3 | -3.4
O=C(C[C@H]1CC[C@H]2[C@@H](COC[C@H](O)CN2S(=O)(=O)c2ccc(F)cc2)O1)NCC1CCCCC1 | 66.4* | 6.9 | 3.1 | -0.2 | -13.0 | 1.9
COc1ccccc1NC(=O)Cn1c(C)nc2c(sc(=S)n2Cc2ccco2)c1=O | -12.2 | -18.0 | -1.8 | 0.9 | 4.0 | 12.2
COc1cccc(S(=O)(=O)N[C@@H]2CC[C@@H](CCN)O[C@@H]2CO)c1 | -10.9 | x | 11.1 | -2.4 | 21.6 | -3.5
O=C(COC(=O)c1ccccc1NC(=O)c1ccccc1)c1ccc([N+](=O)[O-])cc1 | x | -16.9 | 3.6 | x | x | -8.0
O=C(Nc1ccc([N+](=O)[O-])cc1NC(=O)c1ccccc1)c1ccccc1 | -9.3 | -5.3 | -7.4 | 1.9 | 84.8* | 8.3
O=C(COC(=O)c1ccccc1NC(=O)c1ccccc1)c1cccc([N+](=O)[O-])c1 | x | x | x | x | 69.4* | x
CCC1(c2ccccc2)NC(=O)N(CC(=O)Nc2ccc3c(c2)CCC3)C1=O (configuration not stated) | -130.5 | -6.5 | -0.3 | 4.1 | -43.9 | -5.4
